According to US10104882B2, “Methods and compositions for preventing and treating electrophile-mediated toxicities” (priority 2013, dated 2018):

Tested on: male C57 BL mice
Test: Mouse model of oral acetaminophen (APAP) overdose hepatotoxicity/lethality
Format: in vivo
Protocol: FIG. 5. Effects of i.p. 2-ACP (2.40 mmol/kg) or equimolar N-acetylcysteine (NAC) on oral acetaminophen (APAP) (500 mg/kg)-induced hepatotoxicity in mice (n=15-30/group). Kaplan-Meier survival curves illustrate the cumulative percent daily lethality in the APAP alone, APAP/NAC and APAP/ACP groups. Joining line indicates statistically significant differences in treatment groups at ***p<0.001 level of significance.
FIG. 6A-6B. (A). Dose-dependency of i.p. 2-ACP (0.80-2.40 mmol/kg) on oral acetaminophen (AAP or APAP) (500 mg/kg)-induced lethality. (B). Dose-dependency of i.p. NAC (2.40-7.20 mmol/kg) on oral APAP-induced lethality. Kaplan-Meier survival curves illustrate the cumulative percent daily lethality in the APAP alone, APAP/NAC and APAP/ACP groups (n=15 mice/group). Joining line indicates statistically significant differences in treatment groups at ***p<0.001 and **p<0.01 levels of significance.
FIG. 7A-7B. Temporal-dependency of i.p. 2-ACP (A) (2.40 mmol/kg) or equimolar NAC (B) on oral APAP (500 mg/kg)-induced lethality. Hepatoprotectants were administered 20 mins before (−20), 20 mins after (+20) or 60 mins after (+60) APAP intoxication. Kaplan-Meier survival curves illustrate the cumulative percent daily lethality in the APAP alone, APAP/NAC and APAP/ACP groups (n=15 mice/group). Joining line indicates statistically significant differences in treatment groups at **p<0.01 and *p<0.05 levels of significance.
To test this premise, experimental groups (n=15-30/group) of fasted male C57 BL mice were administered equimolar i.p. doses of either 2-ACP or NAC (PEG400/PBS vehicle) at 20 minutes prior to acute oral (gavage) overdose of AAP (500 mg/kg)^14. A separate group received the PEG400 vehicle 20 mins prior to AAP. […] Vehicle control mice (n=10) received sequential injections of PEG400 (i.p. followed by oral). At several times post-AAP administration (2, 6, 24, 48 and 168 hrs), groups of mice were anesthetized in a carbon dioxide chamber and heparinized blood samples were collected. Samples were centrifuged and resulting serum was retained for analyses (see below). Livers were also excised, weighed and tissue samples were collected for histopathological evaluation. Remaining tissue was snap frozen in liquid nitrogen. Hepatotoxicity was determined by quantification of serum alanine aminotransferase (ALT) and aspartate aminotransferase (AST) using colorimetric assays. Serum lactate dehydrogenase (LDH) was also measured as an index of generalized AAP-induced organ toxicity. To evaluate the extent of cellular oxidative stress in liver homogenates, the unsaturated aldehyde by-products of lipid peroxidation, HNE and malondialdhyde (MDA), were determined according to a modification of the Gerard-Monnier et al. method^27. In addition, soluble thiol contents were measured in homogenates according to LoPachin et al.^44.

In the case of `CC(=O)N[C@@H](CS)C(=O)O` [NAC, N-acetylcysteine], the “protection from APAP-induced lethality (survival)” value (shortened to “protection … (survival)”) (i.p. 2.40 mmol/kg, 20 min after (+20) APAP) is reported as “not protective”, the “protection … (survival)” value (i.p. 2.40 mmol/kg, 20 min before oral APAP 500 mg/kg, 7 day period) is reported as “ineffective; also recorded: not protective” and the “protection … (survival)” value (i.p. 2.40 mmol/kg, 60 min after (+60) APAP) is reported as “partially improved the survival”. The “biochemical indices of hepatocyte death (plasma ALT, AST, LDH) and oxidative stress (liver thiol loss, unsaturated aldehyde content)” value (i.p. pretreatment, oral APAP) was “but not NAC, prevented APAP-induced liver cell death”, the “histopathology: liver centrilobular necrosis” value (i.p. pretreatment, oral APAP) was “did not stop this damage” and the “dose-dependency of protection from APAP-induced lethality” value (i.p. pretreatment, 2-ACP 0.80-2.40 mmol/kg, NAC 4.80-7.20 mmol/kg) was “not protective and instead accelerated the rate of APAP lethality”. For the same molecule, the “protection … (survival)” value (oral gavage 2.40 mmol/kg, 20 min before oral APAP) was “complete protection”.

Entries after “also recorded” stand apart in the source; their conditions may differ.
